Laboratory results as given in PMC3440242 (Peptides, 2012).

Experiments:
human Y2 receptor [1] = experiment: Unmasking of surface human Y2 receptor in adherent CHO cells; format: cell-based
human Y2 receptor [2] = experiment: Internalization; format: cell-based; details: NEM, MTSET 30 μM; EDTA 1 mM (cell detachment)

Compound | unmasking of surface Y2-CHO sites (in words) (human Y2 receptor [1]) | effect on internalization of agonist (in words) (human Y2 receptor [2])
C[C@H](CCC(=O)O)[C@H]1CC[C@H]2[C@@H]3[C@H](O)C[C@@H]4C[C@H](O)CC[C@]4(C)[C@H]3C[C@H](O)[C@]12C [cholate] | inactive at 100 μM in hY2-CHO unmasking | 
O=C(O)CN(CCN(CC(=O)O)CC(=O)O)CC(=O)O [EDTA] |  | significantly reduced internalization of agonists
